# Yeast mating assay 2: variants of the scFv Ab-95

Values reported by Engelhart et al. 2022, doi:10.1038/s41597-022-01779-4 (FLAb copy).

Antigen: PDVDLGDISGINAS, a 14-residue peptide of the SARS-CoV-2 spike HR2 region.

Parent scFv Ab-95: VH joined to VL by a 15-residue (Gly4Ser)3 linker. Changes lie in the light chain CDRs alone.
VH: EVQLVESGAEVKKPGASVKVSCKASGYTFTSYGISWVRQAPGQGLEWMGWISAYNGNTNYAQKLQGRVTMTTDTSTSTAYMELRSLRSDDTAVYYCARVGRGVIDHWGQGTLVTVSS
VL: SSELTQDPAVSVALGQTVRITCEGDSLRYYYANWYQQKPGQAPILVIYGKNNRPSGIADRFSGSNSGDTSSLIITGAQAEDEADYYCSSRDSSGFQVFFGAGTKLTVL

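Phage display of a naive human antibody library on the peptide gave the parent. AAYL52 was designed without a model: most single CDR substitutions and a random sample of double and triple ones. The assay is AlphaSeq: two haploid yeast populations carry antibody and antigen on their surface. The frequency of each diploid, read from paired DNA barcodes, reflects how well the two displayed proteins bind. Read counts were normalised to the haploid input and turned into Kd by a linear fit to BCL2-family pairs of known affinity, for each replicate. There are three technical replicates.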

Variants are written as CDR1, CDR2 and CDR3 of the light chain (limits as in the source). Parent: EGDSLRYYYAN, GKNNRPS, SSRDSSGFQVF.
All variants listed here change V97 of the VL, counted from its first residue.
Values are apparent Kd, the geometric mean of the replicates that gave a signal; lower means stronger binding.
"nd" marks a missing value. The strain was present, yet no cells mated with the target were sequenced in any replicate, which points to weak or no binding.

- EGDSLRYYYAN, GKNNRPS, SARDSSGFQNF = 340 nM (3 of 3 replicates)
- EGDSLRYYYAN, GKRNRPS, FSRDSSGFQIF = nd (0 of 3 replicates)
- EGDSLRYYYAN, GKNNRPS, SSSDSQGFQEF = 33 µM (2 of 3 replicates)
- EGDSLRYKYAN, GKNNRPV, SSRDSSGFQFF = 43 nM (3 of 3 replicates)
- EGDSLRYYCAN, GKNNRPS, SSRLSSGFQPF = 4.9 µM (1 of 3 replicates)
- EFDSLRYYYAN, GKNNRPS, SCRDSSGFQHF = 1.4 µM (3 of 3 replicates)
- EGDSLRYGYAN, GKNNRPS, SSRDSSGFQGY = 6.2 nM (3 of 3 replicates)
- EGDSLREYYAN, GKNNRPS, SSRDSSGFQRF = 770 nM (3 of 3 replicates)
- EGDSLRYYYAN, GKNNWPS, SSRDSSGKQQF = 54 µM (1 of 3 replicates)
- EGDSLRAEYAN, GKNNRPS, SSRDSSGFQEF = 15 nM (3 of 3 replicates)
- EGDSLRYYYAN, GKNNRPS, VSRDSSGFGAF = 42 nM (3 of 3 replicates)
- EGDSLRYYYAN, GKNNRPS, SSRWSSGSQMF = nd (0 of 3 replicates)
- EGDSLTYYVAN, GKNNRPS, SSRDSSGFQQF = 1.3 µM (1 of 3 replicates)
- EGDSLRYYYAN, GKNNRPS, NSRDSSGFQRF = 110 nM (3 of 3 replicates)
- EGDSLRYYYAN, GKNNRPH, SSRDSSGFQSF = 2.2 µM (3 of 3 replicates)
- EGDSLRYYYPN, GKNNRPS, SSRDSSGLQDF = 3.7 µM (2 of 3 replicates)
- EWCSLRYYYAN, GKNNRPS, SSRDSSGFQSF = 34 µM (2 of 3 replicates)
- EGHSLRYYYAA, GKNNRPS, SSRDSSGFQPF = 20 µM (3 of 3 replicates)
- EGDSLRVYYAN, QKNNRPS, SSRDSSGFQTF = 12 µM (3 of 3 replicates)
- EGDSLRYYYAN, GKNNRPS, SSRDVSGFQEM = 72 nM (3 of 3 replicates)
- CGDSLRYYYAN, GKNNRPS, SSRDSEGFQMF = nd (0 of 3 replicates)
- EGDSLRYYYAN, GNNNRPS, SSRDSSGDQMF = 270 nM (3 of 3 replicates)
- EGDSLRYYYAN, SKNNRPD, SSRDSSGFQFF = 17 µM (1 of 3 replicates)
- EGDSLRYYYAN, GMNNRPK, SSRDSSGFQNF = 2.1 µM (3 of 3 replicates)
- EGDSDRDYYAN, GKNNRPS, SSRDSSGFQFF = 900 nM (1 of 3 replicates)
- VGDSLRYYYAN, GKNNRPS, SSRDSSDFQRF = 1.4 µM (3 of 3 replicates)
- EGDILRYYYAN, GKNNRPS, LSRDSSGFQMF = 4.6 µM (3 of 3 replicates)
- EGDSLRYPYAN, GKNNRPS, SSRSSSGFQRF = nd (0 of 3 replicates)
- EGDSLRYYYAN, GKNNYPN, SSRDSSGFQKF = nd (0 of 3 replicates)
- EGDSLRYYERN, GKNNRPS, SSRDSSGFQRF = 2.7 µM (3 of 3 replicates)
- EGDSLRYYVAN, GKNNRPS, SSRDSSGFQSF = 13 µM (1 of 3 replicates)
- EGDSLRYYYAT, GKNTRPS, SSRDSSGFQYF = nd (0 of 3 replicates)
- EGDSLRYEYAN, GKNWRPS, SSRDSSGFQCF = 56 nM (3 of 3 replicates)
- EGDSLRYYYAN, GKNNRPS, SSRKSSGCQLF = 1.8 µM (2 of 3 replicates)
- PGDSLRYYYAN, GKNNRPS, SSRDSNGFQEF = nd (0 of 3 replicates)
- SGQSLRYYYAN, GKNNRPS, SSRDSSGFQGF = 160 nM (3 of 3 replicates)
- EGDSLRYYYAN, GKNNRPS, SSRDSRGFGFF = 76 nM (3 of 3 replicates)
- EGDSLRYYYAH, GKNNRPS, SSRDSSGFQAF = 2.6 µM (1 of 3 replicates)
- EGDSLRYYYAN, MKNYRPS, SSRDSSGFQLF = 10 µM (1 of 3 replicates)

Excerpt, the first 6 entries:

CDR-L1,CDR-L2,CDR-L3,apparent Kd,replicates with signal
EGDSLRYYYAN,GKNNRPS,SARDSSGFQNF,340 nM,3/3
EGDSLRYYYAN,GKRNRPS,FSRDSSGFQIF,nd,0/3
EGDSLRYYYAN,GKNNRPS,SSSDSQGFQEF,33 µM,2/3
EGDSLRYKYAN,GKNNRPV,SSRDSSGFQFF,43 nM,3/3
EGDSLRYYCAN,GKNNRPS,SSRLSSGFQPF,4.9 µM,1/3
EFDSLRYYYAN,GKNNRPS,SCRDSSGFQHF,1.4 µM,3/3

Parent in this assay: reference entry 200 nM, copy in this library 180 nM.
Empty control strains, which show no peptide, gave a signal in 28% of pairings with library AAYL52; the median was 8.2 µM and 95% of these signals were weaker than 800 nM. No background was subtracted.